Test results published in ChEMBL document CHEMBL1156142, “COX, LOX and platelet aggregation inhibitory properties of Lauraceae neolignans” (Bioorg Med Chem Lett, 2009).
pIC50: −log10 of the molar value.

Experiments:
Ovis aries = species on record: Ovis aries; experiment: Selectivity ratio of IC50 for ovine COX-1 to IC50 for ovine COX-2
[1] = Antiplatelet activity in rabbit platelets assessed as inhibition of adenosin 5'-diphosphate-induced platelet aggregation; type: functional, cell-based; settings: Oryctolagus cuniculus

- Ratio IC50 (Ovis aries): 13.2
- pIC50 [1]: 3.92
Compound: C=CCC1=C[C@@]2(OC)C(=CC1=O)O[C@H](c1cc(OC)c(OC)c(OC)c1)[C@H]2C [MIRANDIN A]
